IC50 data for one molecule are collected here from US6525022B1, “Receptor specific atrial natriuretic peptides” (Genentech, Inc., priority 1993, dated 2003).

This assay addresses T1, human natriuretic peptide receptor-A (human), P16066.
T1 chain: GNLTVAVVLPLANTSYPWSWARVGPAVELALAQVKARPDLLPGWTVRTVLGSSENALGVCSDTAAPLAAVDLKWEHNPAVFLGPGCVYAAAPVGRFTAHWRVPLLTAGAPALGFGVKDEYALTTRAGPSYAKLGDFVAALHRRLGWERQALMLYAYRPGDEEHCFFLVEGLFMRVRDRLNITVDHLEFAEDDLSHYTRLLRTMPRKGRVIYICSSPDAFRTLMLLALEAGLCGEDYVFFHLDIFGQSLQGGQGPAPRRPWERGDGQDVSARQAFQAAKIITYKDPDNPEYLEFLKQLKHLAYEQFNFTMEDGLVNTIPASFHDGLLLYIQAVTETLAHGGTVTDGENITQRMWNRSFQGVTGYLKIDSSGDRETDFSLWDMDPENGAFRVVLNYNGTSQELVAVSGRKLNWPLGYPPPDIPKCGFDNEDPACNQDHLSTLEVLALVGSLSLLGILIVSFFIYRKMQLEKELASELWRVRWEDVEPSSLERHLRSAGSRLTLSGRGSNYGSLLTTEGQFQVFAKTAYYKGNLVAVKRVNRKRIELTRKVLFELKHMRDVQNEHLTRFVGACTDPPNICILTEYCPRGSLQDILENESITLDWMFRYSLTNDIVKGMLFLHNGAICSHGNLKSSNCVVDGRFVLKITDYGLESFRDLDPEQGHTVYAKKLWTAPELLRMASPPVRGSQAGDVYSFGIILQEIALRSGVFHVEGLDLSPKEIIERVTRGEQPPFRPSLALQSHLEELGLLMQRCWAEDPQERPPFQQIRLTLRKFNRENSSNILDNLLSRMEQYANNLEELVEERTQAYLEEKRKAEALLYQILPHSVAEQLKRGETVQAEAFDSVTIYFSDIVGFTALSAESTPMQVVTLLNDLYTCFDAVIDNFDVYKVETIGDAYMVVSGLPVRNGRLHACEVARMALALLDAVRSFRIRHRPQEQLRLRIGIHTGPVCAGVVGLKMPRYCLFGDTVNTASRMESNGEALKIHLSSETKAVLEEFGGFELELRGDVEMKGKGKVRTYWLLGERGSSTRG
Put plainly: competition binding vs 125I-rat ANP, membranes. The settings on record: chains peptide; modification not given.

With SLRRSSCFTGSIDRIRAQSGLGCNSFRY [ANF 27], the IC50 was found to be 0.118 nM.

For orientation: IC50 means the midpoint of a concentration-inhibition curve.
